From ChEMBL document CHEMBL1132154, “Novel partial agonists for the histamine H(3) receptor with high in vitro and in vivo activity” (J Med Chem, 1999)

The chains behind the UniProt entries cited, without tags or fusion partners. Where a name states a change or a piece, a line headed by the entry shows the natural chain unless it says otherwise.
UniProt Q9QYN8: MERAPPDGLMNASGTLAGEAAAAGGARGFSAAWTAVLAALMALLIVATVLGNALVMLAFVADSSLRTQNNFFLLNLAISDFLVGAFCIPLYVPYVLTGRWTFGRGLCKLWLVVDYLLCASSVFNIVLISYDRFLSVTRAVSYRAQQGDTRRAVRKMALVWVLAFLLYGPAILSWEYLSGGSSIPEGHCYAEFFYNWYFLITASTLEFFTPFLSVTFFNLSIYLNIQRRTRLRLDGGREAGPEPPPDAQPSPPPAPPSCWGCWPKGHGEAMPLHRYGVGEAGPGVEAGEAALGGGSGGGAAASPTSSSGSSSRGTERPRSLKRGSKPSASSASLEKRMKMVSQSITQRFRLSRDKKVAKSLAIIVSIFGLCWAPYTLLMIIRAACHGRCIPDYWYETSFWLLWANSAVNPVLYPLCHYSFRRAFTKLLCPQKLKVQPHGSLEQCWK

Target: Histamine H3 receptor (Rattus norvegicus, UniProt Q9QYN8)
Assay: In vitro binding affinity against histamine H3 receptor from synaptosomes of rat cerebral cortex
Type: subcellular, Brain
Summary of the method: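 Rat cerebral cortex synaptosomes; K+-evoked depolarization-induced [3H]histamine release measured for H3 agonist and antagonist activity; intrinsic activity derived from this preparation; at least triplicate.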

EC50: 2.8 nM
SMILES: N=C(N)SCCc1cnc[nH]1 [IMETIT]
